The record followed here is patent US10857082B2, “Diarylalkanes as potent inhibitors of binuclear enzymes” (Unigen, Inc., priority 2004, dated 2020).

Protein sequences, listed by entry. Tags and fused reporters are not part of them. Residues count along the entry.
UniProt C7FF04, 1-392 limits assumed: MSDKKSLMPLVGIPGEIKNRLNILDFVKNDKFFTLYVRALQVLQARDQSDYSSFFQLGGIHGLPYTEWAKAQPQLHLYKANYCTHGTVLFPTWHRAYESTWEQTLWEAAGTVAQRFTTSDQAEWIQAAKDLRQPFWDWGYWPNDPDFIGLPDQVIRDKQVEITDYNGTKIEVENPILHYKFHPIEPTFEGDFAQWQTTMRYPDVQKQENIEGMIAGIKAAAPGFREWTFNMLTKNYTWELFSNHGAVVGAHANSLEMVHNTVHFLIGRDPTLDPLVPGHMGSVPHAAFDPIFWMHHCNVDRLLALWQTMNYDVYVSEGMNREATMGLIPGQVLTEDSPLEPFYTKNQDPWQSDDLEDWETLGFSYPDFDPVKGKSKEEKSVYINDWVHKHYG

Structures are written as SMILES.

One experiment addresses mushroom tyrosinase (Agaricus bisporus, UniProt C7FF04). Kind of experiment: Tyrosinase inhibition assay (L-DOPA to dopachrome, absorbance at 450 nm). The experiment is classed as biochemical.
Experiment [1] concerns B16 F1 cells. Put plainly: Inhibition of melanin production in B16 F1 cells without β-MSH induction (endogenous). As for the experimental part: (§1) The inhibition of melanin production was evaluated using two different assays. In the first assay, the inhibition of melanin production was evaluated without induction by β-MSH; whereas in the second assay the inhibition of melanin production was measured with β-MSH induction in cell culture medium. Briefly, B16 F1 cells (ATCC #CRL-622) were grown to confluency and then seeded at 40,000 cells per well. The cells were allowed to attach overnight at 37° C. in a humidified environment containing 5% CO2. On day 2, inhibitors were added to the cells at concentrations ranging from 0-1000 μM in triplicate and allowed to incubate for four days. The amount of β-MSH required to induce melanin formation was determined by the addition of hormone at concentrations ranging from 0-1000 nM in ten-fold increments. Once the proper β-MSH concentration was determined, cells were seeded as above, allowed to attach overnight and then co-incubated with tyrosinase inhibitors at concentrations ranging from 0-1000 μM. Color development was visually monitored each morning. After the development of color, 200 μl of cell supernatant was removed from each well and absorbance was measured at 450 nm. The resulting readings were used to determine the IC50 for melanin formation in the cell assay with and without β-MSH induction. […]

The subject of experiment [2] is B16 F1 cells. Put plainly: Inhibition of melanin production in B16 F1 cells with β-MSH induction. The note with it: read-out: IC50 for melanin formation, induced experiment. As for the experimental part:
as §1

As to `COc1ccc(CCCc2cc(O)ccc2O)c(OC)c1C`, the “Tyrosinase inhibitory activity in words” value at mushroom tyrosinase is “strong tyrosinase inhibitory activity”. Besides, the IC50 – broadly, the point on the concentration scale where inhibition reaches its midpoint – on mushroom tyrosinase (read-out: IC50 for inhibition of tyrosinase, listed as IP302b) was found to be 1200 nM; in the experiment on B16 F1 cells [1] (read-out: IC50 for melanin formation, endogenous experiment, B16 F1 cells, without β-MSH induction) it was 5.2 µM; in the experiment on B16 F1 cells [2] it was 34 µM. Moreover, the “Inhibition of melanin production relative to kojic acid, in words” value in the experiment on B16 F1 cells [1] (B-16 cell line model, with and without β-MSH induction) is “at least as good, if not better inhibitors than kojic acid”.
